Test results from publication PMC4835244 (Stem Cells Translational Medicine, 2016).

Tested on: HepG2 cells
Conditions: human, 18 h

## Nc1nc2nc[nH]c2c(=S)[nH]1 [6-Thioguanine]
  Cytotoxicity to HepG2 cells (CTG): cytotoxic to HepG2 cells
